Target: T1, hTASK-1 (K2P3.1, KCNK3) (Homo sapiens, UniProt O14649)
T1 construct: full-length cDNA in pIRES-CD8 vector; cRNA injected into Xenopus laevis oocytes
Assay: two-electrode voltage clamp, Xenopus oocytes
Type: cell-based
Details: read-out: TASK-1
Source text: two-electrode voltage clamp, Xenopus oocytes on hTASK-1 (K2P3.1, KCNK3)

Amino acid sequences for entries named in this document (tags omitted). A change or cut given only in a name is not applied to a line headed by its entry.
UniProt O14649: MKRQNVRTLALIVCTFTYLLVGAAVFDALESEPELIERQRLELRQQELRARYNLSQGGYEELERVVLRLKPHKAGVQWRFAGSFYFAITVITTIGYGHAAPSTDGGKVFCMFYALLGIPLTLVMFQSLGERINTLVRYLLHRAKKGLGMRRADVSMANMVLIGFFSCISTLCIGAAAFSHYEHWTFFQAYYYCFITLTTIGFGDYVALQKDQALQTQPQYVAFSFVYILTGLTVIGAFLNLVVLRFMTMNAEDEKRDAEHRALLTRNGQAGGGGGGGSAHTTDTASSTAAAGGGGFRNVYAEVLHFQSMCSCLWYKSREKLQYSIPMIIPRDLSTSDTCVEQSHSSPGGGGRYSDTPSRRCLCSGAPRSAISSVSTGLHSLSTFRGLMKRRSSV

IC50: 45 ± 3.9 µM
Structure (SMILES): O=C(/C=C/C=C/c1ccc2c(c1)OCO2)N1CCCCC1 [piperine]
